Data taken from US6806276B2, “2-oxoquinoline compounds and pharmaceutical uses thereof” (Japan Tobacco Inc., priority 1999, dated 2004).

By UniProt entry, the sequences of proteins in these tests, tags left out.
UniProt P34972, whole entry: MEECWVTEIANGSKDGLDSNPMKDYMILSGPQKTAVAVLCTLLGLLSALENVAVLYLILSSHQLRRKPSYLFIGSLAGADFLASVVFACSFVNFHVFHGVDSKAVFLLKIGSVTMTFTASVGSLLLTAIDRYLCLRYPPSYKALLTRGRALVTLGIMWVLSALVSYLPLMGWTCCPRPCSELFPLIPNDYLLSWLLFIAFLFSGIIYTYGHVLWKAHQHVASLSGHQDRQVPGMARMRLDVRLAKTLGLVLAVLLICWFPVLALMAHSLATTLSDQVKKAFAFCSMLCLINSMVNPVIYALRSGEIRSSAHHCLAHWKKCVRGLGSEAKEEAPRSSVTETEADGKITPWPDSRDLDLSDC

Target: T1, human peripheral type cannabinoid receptor (hCB2) (Homo sapiens, UniProt P34972)
T1 construct: expressed in transfected cells; host or cells: CHO cells
Test: Binding assay (in vitro), [3H]Win55212-2 displacement, membrane fractions of human CB2-CHO
Conditions: hCB2 expressed in CHO cells, [3H]Win55212-2 2 nM, 30° C. 90 minutes; read-out: Ki value Peripheral type receptor (S)

Compound `CCOc1c(OC)ccc2cc(C(=O)NCCc3ccncc3)c(=O)[nH]c12` [Example 3-6, 8-ethoxy-7-methoxy-2-oxo-1,2-dihydroquinoline-3-carboxylic acid (2-pyridine-4-ylethyl)amide] has a Ki of 0.02 nM.
